Key:
MOR = MOR (Rattus norvegicus, UniProt P33535); test: [35S]GTPγS binding to membranes of CHO cells stably expressing the MOR; format: biochemical
NOR = NOR (Homo sapiens, UniProt P41146); test: [35S]GTPγS binding to membranes of CHO cells stably expressing the NOR; format: biochemical; details: % of maximal [35S]GTPγS binding of reference full agonist N/OFQ

Amino acid sequences for entries named in this document (tags omitted). A change or cut given only in a name is not applied to a line headed by its entry.
UniProt P33535, whole entry: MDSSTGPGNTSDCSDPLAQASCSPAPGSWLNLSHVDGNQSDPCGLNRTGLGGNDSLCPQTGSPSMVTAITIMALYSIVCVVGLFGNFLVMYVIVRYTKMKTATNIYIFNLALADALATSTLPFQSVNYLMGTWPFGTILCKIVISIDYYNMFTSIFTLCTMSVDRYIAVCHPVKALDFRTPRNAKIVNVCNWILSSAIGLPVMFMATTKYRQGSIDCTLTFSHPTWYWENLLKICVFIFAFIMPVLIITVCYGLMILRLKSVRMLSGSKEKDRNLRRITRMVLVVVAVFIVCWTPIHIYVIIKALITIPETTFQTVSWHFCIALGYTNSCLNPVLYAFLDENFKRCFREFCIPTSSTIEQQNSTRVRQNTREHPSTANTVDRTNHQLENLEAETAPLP
UniProt P41146: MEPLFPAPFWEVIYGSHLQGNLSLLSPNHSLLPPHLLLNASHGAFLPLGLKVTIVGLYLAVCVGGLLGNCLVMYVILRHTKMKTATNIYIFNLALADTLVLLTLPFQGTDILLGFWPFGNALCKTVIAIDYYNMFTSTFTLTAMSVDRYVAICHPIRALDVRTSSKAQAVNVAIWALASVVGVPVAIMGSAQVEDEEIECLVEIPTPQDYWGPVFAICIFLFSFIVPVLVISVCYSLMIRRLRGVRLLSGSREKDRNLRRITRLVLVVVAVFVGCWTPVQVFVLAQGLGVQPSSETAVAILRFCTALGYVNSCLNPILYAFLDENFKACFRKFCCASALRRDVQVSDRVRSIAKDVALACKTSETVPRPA

SMILES	EC50 (MOR)	Maximal Effect, NOR (NOR)
C[C@@H](NC(=O)[C@@H](N)Cc1ccc(O)cc1)C(=O)NCC(=O)N(C)[C@@H](Cc1ccccc1)C(=O)NCCO [DAMGO]	6.3 ± 0.43 nM	–
CN(C(=O)/C=C/c1ccoc1)[C@@H]1CC[C@@]2(O)[C@H]3Cc4cccc5c4[C@@]2(CCN3CC2CC2)[C@H]1O5 [42B]	–	110.9 ± 7.4%

Source: PMC8336721 (ACS chemical neuroscience, 2020)
